This is an account of results in ChEMBL document CHEMBL1221353, “Synthesis and evaluation of amides surrogates of dopamine D3 receptor ligands” (Bioorg Med Chem Lett, 2010).

Protein sequences, listed by entry. Tags and fused reporters are not part of them.
UniProt P35462, whole entry: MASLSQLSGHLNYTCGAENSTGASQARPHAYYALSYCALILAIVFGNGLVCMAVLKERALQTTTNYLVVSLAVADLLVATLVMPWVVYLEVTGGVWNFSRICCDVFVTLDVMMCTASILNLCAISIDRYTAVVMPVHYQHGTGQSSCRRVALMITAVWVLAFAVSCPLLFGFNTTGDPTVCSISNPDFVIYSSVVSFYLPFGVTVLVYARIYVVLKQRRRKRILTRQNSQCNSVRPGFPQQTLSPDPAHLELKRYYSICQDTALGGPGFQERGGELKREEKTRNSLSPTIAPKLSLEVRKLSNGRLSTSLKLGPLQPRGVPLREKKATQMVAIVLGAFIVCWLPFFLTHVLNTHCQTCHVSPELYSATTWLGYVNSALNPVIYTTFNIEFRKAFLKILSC

The target in this assay is D(3) dopamine receptor (Homo sapiens, UniProt P35462). The assay is described as follows: biochemical.
In turn, `Clc1cccc(N2CCN(CCCCNc3ccccn3)CC2)c1Cl` had a Ki of 0.4 nM.
The value for `COc1ccccc1N1CCN(CCCCNc2ccc3ccccc3n2)CC1` was 5.6 nM; that for `Clc1cccc(N2CCN(CCCCNc3nccc4ccccc34)CC2)c1Cl` was 3.1 nM.

The term Ki denotes the dissociation constant of the complex between target and ligand, obtained from inhibition or displacement. Read a low Ki as higher affinity.
